# Yeast mating assay 2: variants of the scFv Ab-95

Binding partner: SARS-CoV-2 spike HR2 peptide, sequence PDVDLGDISGINAS.

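Library AAYL52 holds single substitutions and randomly drawn double and triple substitutions in the CDRs. The scFvs were displayed on barcoded MATa yeast, the peptide on MATalpha yeast. Mating (16 h, 30 °C) was followed by selection of diploids and sequencing of their barcodes. Scores were corrected for input abundance and mapped to Kd with protein pairs of known affinity run in the same pool. Mating was done three times.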

The variants keep the heavy chain, the linker and the frameworks of Ab-95 (scFv order VH, three GGGGS repeats, VL).
VH: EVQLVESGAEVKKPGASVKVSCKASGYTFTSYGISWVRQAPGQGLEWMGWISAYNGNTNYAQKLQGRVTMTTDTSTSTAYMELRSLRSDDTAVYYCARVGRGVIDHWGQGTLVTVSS
VL: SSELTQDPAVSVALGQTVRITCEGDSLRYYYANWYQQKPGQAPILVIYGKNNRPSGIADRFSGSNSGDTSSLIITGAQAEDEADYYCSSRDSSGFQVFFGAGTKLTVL

Each variant is given by its three light chain CDRs, as the data file delimits them; those of the parent are EGDSLRYYYAN, GKNNRPS, SSRDSSGFQVF.
Values are log10 of the apparent Kd in nM; lower means stronger binding.
An entry "n.d." has no value in the source: the pair was not observed among the diploids in that replicate. This suggests poor binding but is not conclusive.

CDR-L1,CDR-L2,CDR-L3,log10 Kd (nM) by replicate,signal with controls
EGDSLRYEYAM,GKNNRPS,SSRDNSGFQVF,2.25 / 2.31 / 2.17,3/9 (4.11)
EDDSDRYYPAN,GKNNRPS,SSRDSSGFQVF,4.21 / n.d. / 2.16,0/9
EGDGLRKYYAN,GKNNRPS,SSRDSSEFQVF,n.d. / n.d. / n.d.,3/9 (4.07)
EGDSLRYYYAN,GKNVRPW,SSRDSKGFQVF,2.50 / n.d. / 2.32,5/9 (3.17)
EGDSLRYYYAN,VKNNRPS,SSRDSSTGQVF,n.d. / n.d. / n.d.,1/9 (4.44)
EGDSFWYYYAN,GKNNRPS,STRDSSGFQVF,2.65 / 3.51 / 3.48,2/9 (5.02)
EIDSLRYYYAV,GKNNRPS,SSRDSSGIQVF,n.d. / n.d. / 3.25,2/9 (3.75)
QGDSLRYYYAN,GKNLRPS,SCRDSSGFQVF,2.02 / 1.88 / 2.00,2/9 (3.63)
EGDSLRYYYAN,DKNNRDS,SSRDSSHFQVF,3.67 / 5.05 / n.d.,3/9 (4.25)
EGDSLRDYYAN,YKNNRPS,RSRDSSGFQVF,5.45 / n.d. / n.d.,5/9 (3.67)
EGDSTRYYYAN,GKNNRPV,SSRDSSDFQVF,2.90 / n.d. / n.d.,2/9 (3.44)
EGFSLDYYYAN,GKNNRSS,SSRDSSGFQVF,3.46 / n.d. / n.d.,1/9 (5.08)
EGDSLRPYYAN,GKNDRPS,SSRDDSGFQVF,2.56 / 2.69 / 2.57,2/9 (3.52)
EGDSLRYYSAN,GKNNLPS,SSRDSSGFAVF,2.62 / 2.53 / 2.54,4/9 (4.56)
EGDSLRYYYAN,GKNNRPS,SSRESSGRAVF,3.08 / 2.67 / 3.13,2/9 (4.15)
EGDILRYYAAN,GKNNRPS,SSRDDSGFQVF,3.66 / 3.30 / 3.48,3/9 (3.24)
EGDSLRYYNAN,GKNNRPS,CSRRSSGFQVF,4.23 / n.d. / n.d.,3/9 (3.65)
EHDSLRYYYAN,GKNNRPS,SSRDSSGFQVF,3.47 / 2.77 / n.d.,1/9 (3.82)
EGDSLRCYYAN,GKNNRKS,VSRDSSGFQVF,3.35 / 4.24 / n.d.,2/9 (3.89)
EGDSLKYYYAN,GKNNRPY,SSRDSSGFDVF,2.58 / 2.12 / 2.30,0/9
EGISLRYYYAN,VKNNHPS,SSRDSSGFQVF,n.d. / 3.07 / n.d.,0/9
EGDSLSYYYAN,GKNNRPS,SSRRSSGFSVF,3.18 / 2.70 / 1.95,3/9 (4.21)
EGDPAGYYYAN,GKNNRPS,SSRDSSGFQVF,3.87 / 3.66 / n.d.,3/9 (3.51)
TGHSLRYYYAN,GKNNRPS,SSYDSSGFQVF,2.76 / 3.56 / 3.32,2/9 (2.89)
EGRSLRYYYAN,GKNNRPS,SSRDSDGFHVF,3.18 / 2.74 / 2.84,4/9 (4.09)
ELDMLRYYYAN,GKNNRPS,SSRDSPGFQVF,2.60 / 2.39 / 2.53,4/9 (3.97)
EGDSLRLYYAN,GKNNRPS,SSFDSSGFQIF,n.d. / n.d. / n.d.,1/9 (3.34)
EGDSLRSYYAN,GKSNRGS,SSRDSSGFQVF,1.88 / 2.23 / 1.69,2/9 (4.12)
EGDSLRYYEAN,HKNNRPS,SSRDSSGFQVW,2.46 / 2.44 / 2.19,4/9 (3.84)
EADSLRYYLAN,GKNNRPS,SSRNSSGFQVF,4.05 / 2.78 / 2.74,2/9 (4.12)
EGDSLQYYYGN,GKNNRPS,SFRDSSGFQVF,3.58 / n.d. / n.d.,1/9 (5.13)
EGGKLRYYYAN,GKFNRPS,SSRDSSGFQVF,2.16 / 3.36 / 1.83,2/9 (4.22)
EGDSLRYYYAN,GKTNRPS,SERDSSGPQVF,3.46 / 2.77 / 3.76,3/9 (3.53)
EGDSLRYYYAN,GENNRYS,HSRDSSGFQVF,4.16 / 4.97 / 3.88,3/9 (4.06)
EGDSLRYYYAN,GKNNRHS,SHRDSSGFGVF,n.d. / 5.38 / n.d.,0/9
EGDSLRYYGAN,GKCNRPS,SSRDSSGFEVF,1.96 / 2.19 / 1.75,4/9 (3.75)
EGISLRYYYAN,GKNNRPS,WSRDSSGTQVF,3.16 / 3.78 / 4.46,5/9 (4.16)
EGDSLWYYYAN,GKNNRPL,SSRDHSGFQVF,3.36 / 4.04 / n.d.,0/9
EGDSLRYYYAF,GKNPRPN,SSRDSSGFQVF,n.d. / n.d. / n.d.,0/9
EGDSLRLAYAN,GKNNRPS,SSRDWSGFQVF,2.01 / 1.65 / 1.31,3/9 (4.65)
EGDFLRYYYAN,GKNNRPS,SSRDSLGFDVF,4.10 / 4.52 / 3.78,3/9 (4.54)
EGDLSRYYYAN,GKNNRPS,SSRDSSGFQVF,3.51 / 3.61 / 4.06,3/9 (4.03)
ELDSLRYYYAN,GKNNRPS,SSRPSSGFQVD,n.d. / 4.06 / 4.28,3/9 (4.18)
EGGSLRYYYAN,EKNNRPS,SSRDSSLFQVF,n.d. / n.d. / n.d.,0/9
EGRSLRYYYAR,GKNNRPS,SSRDSSGMQVF,4.08 / 4.24 / n.d.,1/9 (3.87)
EGDKLRYYYAN,GKNNRPS,SSRDSKGFNVF,3.58 / 3.26 / 4.03,2/9 (3.61)

The first 6 entries again:

CDR-L1,CDR-L2,CDR-L3,log10 Kd (nM) by replicate,signal with controls
EGDSLRYEYAM,GKNNRPS,SSRDNSGFQVF,2.25 / 2.31 / 2.17,3/9 (4.11)
EDDSDRYYPAN,GKNNRPS,SSRDSSGFQVF,4.21 / n.d. / 2.16,0/9
EGDGLRKYYAN,GKNNRPS,SSRDSSEFQVF,n.d. / n.d. / n.d.,3/9 (4.07)
EGDSLRYYYAN,GKNVRPW,SSRDSKGFQVF,2.50 / n.d. / 2.32,5/9 (3.17)
EGDSLRYYYAN,VKNNRPS,SSRDSSTGQVF,n.d. / n.d. / n.d.,1/9 (4.44)
EGDSFWYYYAN,GKNNRPS,STRDSSGFQVF,2.65 / 3.51 / 3.48,2/9 (5.02)

Empty control strains, which show no peptide, gave a signal in 28% of pairings with library AAYL52; the median was 3.91 and 95% of these signals were weaker than 2.90. No background was subtracted. The control count says in how many pairings with the empty strains this scFv gave a signal, with their mean in brackets.

Values reported by Engelhart et al. 2022, doi:10.1038/s41597-022-01779-4 (FLAb copy).